Experimental data from ChEMBL document CHEMBL3091339 (J Med Chem, 2013).

Tests used:
Mus musculus = organism: Mus musculus; assay: animal or person; conditions: CF-1, Hindlimb, po, 1 h
Rattus norvegicus [1] = organism: Rattus norvegicus; assay: animal or person; conditions: Sprague-Dawley, Hindlimb, po, 4 h
[2] = Metabolic stability in rat liver microsomes assessed as compound remaining after 60 mins; format: ADME; conditions: read-out: Stability
Rattus norvegicus [3] = organism: Rattus norvegicus; assay: animal or person; conditions: Sprague-Dawley, Hippocampus, ip

## NS(=O)(=O)NCC1Oc2ccccc2O1
Mus musculus
  ED50: 131 mg/kg

## NS(=O)(=O)NC[C@@H]1COc2cc(Cl)ccc2O1
Rattus norvegicus [1]
  ED50: 50 mg/kg

## NS(=O)(=O)NC[C@H]1COc2ccc(Cl)cc2O1
Mus musculus
  ED50: 104 mg/kg

## NS(=O)(=O)NC[C@H]1COc2c(F)cccc2O1
Mus musculus
  ED50: 230 mg/kg

## NS(=O)(=O)NC[C@H]1COc2cc(F)ccc2O1
Mus musculus
  ED50: 161 mg/kg

## NS(=O)(=O)NC[C@H]1COc2cc(Cl)c(Cl)cc2O1
Mus musculus
  ED50: 296 mg/kg

## NS(=O)(=O)NCC1COc2ccccc2OC1
Mus musculus
  ED50: 267 mg/kg

## NS(=O)(=O)NC[C@H]1COc2cc(Cl)ccc2O1 [JNJ-26489112]
[2]
  remaining at 1 h: 92%
Rattus norvegicus [3]
  ED50: 68.5 mg/kg
Rattus norvegicus [1]
  ED50: 43 mg/kg
